Laboratory results from publication PMC10215400, “The Effectiveness of Imipenem–Relebactam against Ceftazidime-Avibactam Resistant Variants of the KPC-2 β-Lactamase” (Antibiotics, 2023).

The chains behind the UniProt entries cited, without tags or fusion partners. Residues count along the entry.
UniProt Q93LQ9, 25-293 D178N: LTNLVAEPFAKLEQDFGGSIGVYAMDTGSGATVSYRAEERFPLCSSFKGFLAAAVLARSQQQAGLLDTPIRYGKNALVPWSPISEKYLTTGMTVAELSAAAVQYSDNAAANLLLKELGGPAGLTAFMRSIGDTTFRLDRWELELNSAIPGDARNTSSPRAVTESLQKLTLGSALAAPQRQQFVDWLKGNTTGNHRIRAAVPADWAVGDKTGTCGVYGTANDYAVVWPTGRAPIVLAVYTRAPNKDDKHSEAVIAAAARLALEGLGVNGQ

Biological target: KPC-2 β-lactamase D179N variant (Klebsiella pneumoniae, UniProt Q93LQ9, D178N)
Assay: inhibition kinetics with purified enzyme (Ki app, k2/K); acyl-complex by timed mass spectrometry
Type: biochemical
Details: read-out: K i app

O=C(NC1CCNCC1)[C@@H]1CC[C@@H]2CN1C(=O)N2OS(=O)(=O)O [relebactam]
Ki: 3.4 ± 0.3 µM
